Only a part is listed here, and it is no random draw. Activity calls are given as the source filed them.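 How the source made its calls: active means activation above 40%, about the mean plus 3 SD, also judged a hit on visual image review; inconclusive means activation above 40% but not a hit on visual review; inactive means activation not above 40% and no visual hit.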
Assay: enhancers of NFkB p65 translocation in HUVEC – imaging, IL-1B stimulus, high-content imaging, primary screen (AID 819);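 further: percent activation is computed from the nuclear over cytoplasmic p65 intensity ratio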
Settings: HUVEC IL-1B NFkB p65 nuclear translocation imaging; at 2 µM; hits give high values

SMILES | activation
N#CC1(Nc2ccccc2)CCN(CCc2ccccc2)CC1 | inactive: 23.6%
O=C(NCC1(N2CCOCC2)CCCCC1)c1cc(=O)[nH]c2ccccc12 | inactive: -4.33%
CN1CCC(Nc2cccc(F)c2)CC1 | inactive: 2.11%
O=C(NCC1(N2CCOCC2)CCCCC1)c1cc2ccccc2o1 | inactive: -6.74%
O=C(OC1CN2CCC1CC2)C1c2ccccc2Oc2ccccc21 (stereo not given) | inactive: 23.4%
COc1ccc(NC2CCN(CCc3ccccc3)CC2)c(OC)c1 | inactive: -4.3%
CCOc1ncccc1C(=O)NCC1(N2CCOCC2)CCCCC1 | inactive: -12.6%
CCC(CO)(C(=O)OC1CN2CCC1CC2)c1ccccc1 (stereo not given) | inactive: 1.43%
N/C(=N\O)c1c(N)no[n+]1[O-] | inactive: 29.9%
c1ccc(CN2CCC(Nc3ccccc3)CC2)cc1 | inactive: -1.55%

Reference: PubChem BioAssay AID819 (Columbia University Molecular Screening Center, 2007)
